The results in this text go back to article PMC7052193, “Nanobody-enabled monitoring of kappa opioid receptor states” (Nature Communications, 2020).

Sequences of proteins named here, by UniProt entry; tags and fusion partners are left off. A change or cut given only in a name is not applied to a line headed by its entry.
UniProt P41145: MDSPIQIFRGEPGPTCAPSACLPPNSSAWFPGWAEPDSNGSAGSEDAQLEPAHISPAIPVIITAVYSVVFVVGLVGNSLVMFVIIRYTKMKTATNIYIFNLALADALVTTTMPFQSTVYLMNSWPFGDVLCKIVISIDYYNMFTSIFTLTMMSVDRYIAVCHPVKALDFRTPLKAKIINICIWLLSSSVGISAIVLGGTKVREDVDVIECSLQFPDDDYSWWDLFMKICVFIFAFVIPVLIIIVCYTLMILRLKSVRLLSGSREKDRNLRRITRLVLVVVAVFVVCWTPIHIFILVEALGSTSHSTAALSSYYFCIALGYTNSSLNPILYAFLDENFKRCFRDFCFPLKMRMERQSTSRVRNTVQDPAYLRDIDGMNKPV

For this assay, the target named is KOR (Homo sapiens, UniProt P41145). Nature of the assay: Tango arrestin recruitment assay. It counts as cell-based. As to conditions: apo (no Nb6 DNA).

As to `CO[C@]12CC[C@@]3(C[C@@H]1C(C)(C)O)[C@H]1Cc4ccc(O)c5c4[C@@]3(CCN1CC1CC1)[C@H]2O5`, the “Emax, Tango arrestin recruitment” value came to 55 ± 2%.
